From US11236106B2, “Cycloalkane-1,3-diamine derivative” (Daiichi Sankyo Company, Limited, priority 2018, dated 2022)

Experiments:
Assay in all cases: cells
Conditions in all cases: Homo sapiens
MV-4-11 cells = test system: MV-4-11 cells
K562 cells = test system: K562 cells
MOLM-13 cells = test system: MOLM-13 cells
[1] = MV4-11, 72 h, read-out: GI50, cell growth inhibitory activity, MV-4-11, day 3, MV-4-11 cells, cultured 3 days, assigned by order and values
[2] = MV4-11, 168 h, read-out: GI50, cell growth inhibitory activity, MV-4-11, day 7, MV-4-11 cells, cultured 7 days, assigned by order and values
[3] = K562, 72 h, read-out: GI50, cell growth inhibitory activity, K562, day 3
[4] = K562, 168 h, read-out: GI50, cell growth inhibitory activity, K562, day 7
[5] = MOLM-13, 72 h, read-out: GI50, cell growth inhibitory activity, MOLM-13, day 3, MOLM-13 cells, cultured 3 days, assigned by order and values
[6] = MOLM-13, 168 h, read-out: GI50, cell growth inhibitory activity, MOLM-13, day 7, MOLM-13 cells, cultured 7 days, assigned by order and values

SMILES | GI50 (MV-4-11 cells; [1]) | GI50 (MV-4-11 cells; [2]) | GI50 (K562 cells; [3]) | GI50 (K562 cells; [4]) | GI50 (MOLM-13 cells; [5]) | GI50 (MOLM-13 cells; [6])
COc1nc(N(C)[C@H]2C[C@@H](NCc3ccc(-c4cnc(S(C)(=O)=O)c(OC)c4)cc3)C[C@H]2O)c2cc(CC(F)(F)F)sc2n1 [Example 94, (1R,2S,4R)-4-[({4-[6-(methanesulfonyl)-5-methoxypyridin-3-yl]phenyl}methyl)amino]-2-{[2-methoxy-6-(2,2,2-trifluoroethyl)thieno[2,3-d]pyrimidin-4-yl](methyl)amino}cyclopentan-1-ol hydrochloride] | 143 nM | 75.1 nM | 5040 nM | 2820 nM | 1540 nM | 227 nM
COc1cc(-c2ccc(CN[C@H]3CC[C@@H](N(C)c4ncnc5sc(CC(F)(F)F)cc45)C3)cc2)nnc1OC [Example 95, (1R,3S)-N^3-{[4-(5,6-dimethoxypyridazin-3-yl)phenyl]methyl}-N^1-methyl-N^1-[6-(2,2,2-(trifluoroethyl)thieno[2,3-d]pyrimidin-4-yl]cyclopentane-1,3-diamine hydrochloride] | 45.4 nM | 23.9 nM | 5080 nM | 1780 nM | 1100 nM | 66.8 nM
COc1ncc(-c2ccc(CN[C@H]3C[C@@H](O)[C@@H](N(C)c4ncnc5sc(CC(F)(F)F)cc45)C3)cc2)nc1OC [Example 96, (1R,2S,4R)-4-({[4-(5,6-dimethoxypyrazin-2-yl)phenyl]methyl}amino)-2-{methyl[6-(2,2,2-trifluoroethyl)thieno[2,3-d]pyrimidin-4-yl]amino}cyclopentan-1-ol hydrochloride] | 126 nM | 158 nM | 3040 nM | 2610 nM | 268 nM | 281 nM
COc1cnc(-c2ccc(CN[C@H]3C[C@@H](O)[C@@H](N(C)c4ncnc5sc(CC(F)(F)F)cc45)C3)cc2)nc1OC [Example 97, (1R,2S,4R)-4-({[4-(4,5-dimethoxypyrimidin-2-yl)phenyl]methyl}amino)-2-{methyl[6-(2,2,2-trifluoroethyl)thieno[2,3-d]pyrimidin-4-yl]amino}cyclopentan-1-ol hydrochloride] | 295 nM | 187 nM | 3210 nM | 2460 nM | 852 nM | 285 nM
COc1cc(-c2ccc(CN[C@H]3C[C@@H](O)[C@@H](N(C)c4ncnc5sc(CC(F)(F)F)cc45)C3)cc2)nnc1N(C)C [Example 98, (1R,2S,4R)-4-[({4-[6-(dimethylamino)-5-methoxypyridazin-3-yl]phenyl}methyl)amino]-2-{methyl[6-(2,2,2-trifluoroethyl)thieno[2,3-d]pyrimidin-4-yl]amino}cyclopentan-1-ol hydrochloride] | 109 nM | 62.8 nM | 5570 nM | 2100 nM | 411 nM | 105 nM
COc1cc(-c2ccc(CN[C@H]3C[C@@H](O)[C@@H](N(C)c4ncnc5sc(CC(F)(F)F)cc45)C3)cc2)nnc1C#N [Example 99, 6-[4-({[(1R,3R,4S)-3-hydroxy-4-{methyl[6-(2,2,2-trifluoroethyl)thieno[2,3-d]pyrimidin-4-yl]amino}cyclopentyl]amino}methyl)phenyl]-4-methoxypyridazine-3-carbonitrile hydrochloride] | 62.6 nM | 36.5 nM | 3800 nM | 1840 nM | 187 nM | 56.2 nM
COc1cc(-c2ccc(CN[C@H]3C[C@@H](O)[C@@H](N(C)c4ncncc4Oc4ccc(F)cc4-c4cncnc4C(C)C)C3)cc2)nnc1OC [Example 100, (1R,2S,4R)-4-({[4-(5,6-dimethoxypyridazin-3-yl)phenyl]methyl}amino)-2-[(5-{4-fluoro-2-[4-(propan-2-yl)pyrimidin-5-yl]phenoxy}pyrimidin-4-yl)(methyl)amino]cyclopentan-1-ol hydrochloride] | 23.6 nM | < 19.5 nM | > 10000 nM | 5940 nM | 137 nM | 59.8 nM
COc1cc(-c2ccc(CN[C@H]3C[C@@H](O)[C@@H](N(C)c4ncncc4Oc4ccc(F)cc4-c4ccccc4C(C)C)C3)cc2)nnc1OC [Example 101, (1R,2S,4R)-4-({[4-(5,6-dimethoxypyridazin-3-yl)phenyl]methyl}amino)-2-[(5-{[5-fluoro-2′-(propan-2-yl)[1,1′-biphenyl]-2-yl]oxy}pyrimidin-4-yl)(methyl)amino]cyclopentan-1-ol hydrochloride] | 56.3 nM | 50.2 nM | 2760 nM | 2030 nM | 216 nM | 132 nM
COc1cc(-c2ccc(CN[C@H]3C[C@@H](O)[C@@H](N(C)c4ncncc4Oc4ccc(F)cc4-c4ccnn4C(C)C)C3)cc2)nnc1OC [Example 102, (1R,2S,4R)-4-({[4-(5,6-dimethoxypyridazin-3-yl)phenyl]methyl}amino)-2-[(5-{4-fluoro-2-[1-(propan-2-yl)-1H-pyrazol-5-yl]phenoxy}pyrimidin-4-yl)(methyl)amino]cyclopentan-1-ol hydrochloride] | 39.3 nM | 27.1 nM | > 10000 nM | > 10000 nM | 258 nM | 74.2 nM
COc1cc(-c2ccc(CN[C@H]3C[C@@H](O)[C@@H](N(C)c4ncnc5sc(CC(F)(F)F)cc45)C3)cc2)nnc1N1CCC1 [Example 105, (1R,2S,4R)-4-[({4-[6-(azetidin-1-yl)-5-methoxypyridazin-3-yl]phenyl}methyl)amino]-2-{methyl[6-(2,2,2-trifluoroethyl)thieno[2,3-d]pyrimidin-4-yl]amino}cyclopentan-1-ol hydrochloride] | 156 nM | 129 nM | > 5000 nM | 3370 nM | 1630 nM | 285 nM
COc1nc(N(C)[C@H]2C[C@@H](NCc3ccc(-c4cnc(C#N)c(OC)c4)cc3)C[C@H]2O)c2cc(CC(F)(F)F)sc2n1 [Example 106, 5-[4-({[(1R,3R,4S)-3-hydroxy-4-{[2-methoxy-6-(2,2,2-trifluoroethyl)thieno[2,3-d]pyrimidin-4-yl](methyl)amino}cyclopentyl]amino}methyl)phenyl]-3-methoxypyridine-2-carbonitrile hydrochloride] | – | 24.8 nM | – | 435 nM | – | 59.7 nM
COc1cc(-c2ccc(CN[C@H]3C[C@@H](O)[C@@H](N(C)c4ncnc5sc(CC(F)(F)F)cc45)C3)cc2)nnc1Oc1cccnc1 [Example 107, (1R,2S,4R)-4-{[(4-{5-methoxy-6-[(pyridin-3-yl)oxy]pyridazin-3-yl}phenyl)methyl]amino}-2-{methyl[6-(2,2,2-trifluoroethyl)thieno[2,3-d]pyrimidin-4-yl]amino}cyclopentan-1-ol hydrochloride] | – | 27 nM | – | 4910 nM | – | 64.7 nM
COCCOc1nnc(-c2ccc(CN[C@H]3C[C@@H](O)[C@@H](N(C)c4nc(OC)nc5sc(CC(F)(F)F)cc45)C3)cc2)cc1OC [Example 109, (1R,2S,4R)-4-[({4-[5-methoxy-6-(2-methoxyethoxy)pyridazin-3-yl]phenyl}methyl)amino]-2-{[2-methoxy-6-(2,2,2-trifluoroethyl)thieno[2,3-d]pyrimidin-4-yl](methyl)amino}cyclopentan-1-ol hydrochloride] | – | 13.3 nM | – | > 5000 nM | – | 31.2 nM
COc1nc(N(C)[C@H]2C[C@@H](NCc3ccc(-c4nnc(OC(F)F)cc4OC)cc3)C[C@H]2O)c2cc(CC(F)(F)F)sc2n1 [Example 110, (1R,2S,4R)-4-[({4-[6-(difluoromethoxy)-4-methoxypyridazin-3-yl]phenyl}methyl)amino]-2-{[2-methoxy-6-(2,2,2-trifluoroethyl)thieno[2,3-d]pyrimidin-4-yl](methyl)amino}cyclopentan-1-ol hydrochloride] | – | 76.3 nM | – | 1600 nM | – | 253 nM
COc1nc(N(C)[C@H]2C[C@@H](NCc3ccc(-c4nn(C(F)F)c(=O)cc4OC)cc3)C[C@H]2O)c2cc(CC(F)(F)F)sc2n1 [Example 111, 2-(difluoromethyl)-6-[4-({[(1R,3R,4S)-3-hydroxy-4-{[2-methoxy-6-(2,2,2-trifluoroethyl)thieno[2,3-d]pyrimidin-4-yl](methyl)amino}cyclopentyl]amino}methyl)phenyl]-5-methoxypyridazin-3(2H)-one hydrochloride] | – | 634 nM | – | 1200 nM | – | 751 nM
COc1nc(N(C)[C@H]2C[C@@H](NCc3ccc(-c4cnc(CO)c(OC)c4)cc3)C[C@H]2O)c2cc(CC(F)(F)F)sc2n1 [Example 112, (1R,2S,4R)-4-[({4-[6-(hydroxymethyl)-5-methoxypyridin-3-yl]phenyl}methyl)amino]-2-{[2-methoxy-6-(2,2,2-trifluoroethyl)thieno[2,3-d]pyrimidin-4-yl](methyl)amino}cyclopentan-1-ol hydrochloride] | – | 26.5 nM | – | 2560 nM | – | 995 nM
C=CC(=O)N(C)c1nnc(-c2ccc(CN[C@H]3C[C@@H](O)[C@@H](N(C)c4nc(OC)nc5sc(CC(F)(F)F)cc45)C3)cc2)cc1OC [Example 113, N-{6-[4-({[(1R,3R,4S)-3-hydroxy-4-{[2-methoxy-6(2,2,2-trifluoroethyl)thieno[2,3-d]pyrimidin-4-yl](methyl)amino}cyclopentyl]amino}methyl)phenyl]-4-methoxypyridazin-3-yl}-N-methylprop-2-enamide hydrochloride] | – | 99.7 nM | – | 1660 nM | – | 1150 nM

Counter-ions that a name gives are not always drawn. Like-named read-outs stand apart in the source and are kept apart here.
